Here are results for one compound from ChEMBL document CHEMBL4765448, “Multiple biological active 4-aminopyrazoles containing trifluoromethyl and their 4-nitroso-precursors: Synthesis and evaluation” (Eur J Med Chem, 2020).

The nature of this assay: Antioxidant activity assessed as trolox equivalent of ABTS radical scavenging activity measured after 1 hr by UV-vis spectrophotometric method. The format is functional. The method in brief:
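ABTS cation-radical decolorization was read spectrophotometrically as the fall in absorbance after 1 h. Trolox was the reference. TEAC was taken as the ratio of concentration-response slopes, test/Trolox, and IC50 was also derived. Data are mean ± SEM, n = 3.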

On to `O=C1O[C@H]([C@@H](O)CO)C(O)=C1O` [ASCORBIC ACID], for which the Activity was found to be 0.98 equiv.
